{
  "source": "patent US10465009B2",
  "about": "“BCMA antigen binding proteins” (Amgen Inc., priority 2012, dated 2019)",
  "molecules": {"B1": {"name": "Ab-3: human IgG1 anti-huBCMA mAb, heavy chain SEQ ID NO:278, light chain SEQ ID NO:284 (antibody)", "heavy": "EVQLLESGGGLVQPGGSLRLSCAASGFTFSSYAMNWVRQAPGKGLEWVSAISVGGDTYYADSVKGRFTISRDNSKNTLYLQVNSLRAEDSAVYYCAKDQVTLVRGVWYYYGLDVWGQGTTVTVSSASTKGPSVFPLAPSSKSTSGGTAALGCLVKDYFPEPVTVSWNSGALTSGVHTFPAVLQSSGLYSLSSVVTVPSSSLGTQTYICNVNHKPSNTKVDKKV[omitted - human IgG1 Fc]", "light": "DIVLTQSPLSLPVTPGEPASISCRSSQSLLHSNGNNYLDWYLQKPGQSPHLLISLGSQRTSGVPDRFSGSGSGTDFTLKISRVEAEDVGVYYCMQALQPPRRFGQGTKLEIKRTVAAPSVFIFPPSDEQLKSGTASVVCLLNNFYPREAKVQWKVDNALQSGNSQESVTEQDSKDSTYSLSSTLTLSKADYEKHKVYACEVTHQGLSSPVTKSFNRGEC"}, "B2": {"name": "Ab-2: human IgG1 anti-huBCMA mAb, heavy chain SEQ ID NO:276, light chain SEQ ID NO:282 (antibody)", "heavy": "B1 heavy with V82M, S90T, L102M", "light": "B1 light with L4M"}, "B3": {"name": "2A1-MCC-DM1: parental 2A1 antibody conjugated to maytansine (DM1) using non-cleavable linker (SMCC) (conjugate)", "heavy": "EVQLVESGGGLVKPGRSLRLSCTASGFTFGDYALSWFRQAPGKGLEWVGVSRSKAYGGTTDYAASVKGRFTISRDDSKSFAYLQMNSLKTEDTAVYYCCSSGYSSGWTPFDYWGQGTLVTVSSASTKGPSVFPLAPSSKSTSGGTAALGCLVKDYFPEPVTVSWNSGALTSGVHTFPAVLQSSGLYSLSSVVTVPSSSLGTQTYICNVNHKPSNTKVDKKV[omitted - human IgG1 Fc]", "light": "QSVLTQPPSASGTPGQRVTISCSGSSSNIGSNTVNWYQQLPGTAPKLLIFNYHQRPSGVPDRFSGSKSGSSASLAISGLQSEDEADYYCAAWDDSLNGWVFGGGTELTVLGQPKAAPSVTLFPPSSEELQANKATLVCLISDFYPGAVTVAWKADSSPVKAGVETTTPSKQSNNKYAASSYLSLTPEQWKSHRSYSCQVTHEGSTVEKTVAPTECS"}},
  "key": {"[1]": {"test_system": "rrat BCMA (SEQ ID NO: 349)", "experiment": "Biacore T200 biosensor analysis, recombinant rat BCMA", "assay_type": "binding", "experimental": "Biosensor analysis was conducted at 25° C. in a HBS-P buffer system (10 mM HEPES pH 7.4, 150 mM NaCl, and 0.5% Surfactant P20) using a Biacore T200 optical biosensor equipped with a CM5 sensor chip according to the manufacturer's general protocol. The autosampler was maintained at 8° C.\nGoat anti-human IgG capture antibody (Jackson Laboratories; 109-005-098) was immobilized to all flow cells of the sensor chip using standard amine coupling chemistry (9,000 RU). This surface type provided a format for reproducibly capturing fresh analysis antibodies (ligand) after each regeneration step.\nFlow cells 1, 2, and 3 were used to analyze captured anti-BCMA antibodies (˜400-500 RU) while flow cell 4 was used as the reference flow cell.\nSix rBCMA concentrations ranging from 75.0 to 0.309 nM (3-fold dilutions) were prepared in running buffer. The rrat BCMA fusion protein\n(GS::6×His::Sumo::ratBCMA(aa 2-49)::GGS::G3::Avi) sequence:\nEach of the six analyte sample concentrations were run in duplicate and in a mixed order, as a means of assessing the reproducibility of binding and managing potential systematic bias to the order of injection. Multiple blank (buffer) injections also were run and used to assess and subtract system artifacts. The association and dissociation phases for all analyte concentrations were monitored for 300 s and 3600 s, respectively, at a flow rate of 50 uL/min.\nThe surface was regenerated with 10 mM glycine, pH 1.5 for 30 s, at a flow rate of 50 uL/min.\nThe data was aligned, double referenced, and fit using Scrubber 2™ software, which is an SPR data processing and non-linear least squares regression fitting program. First, a dissociation rate coefficient (kd) was determined from the first 600 s of the dissociation phase data. Second, the dissociation rate coefficient was applied as a fixed parameter in the global fit of the 300 s association phase data using a 1:1 binding model to determine the association rate coefficient (10 and the Rmax value."}, "[2]": {"experiment": "Isoelectric point of whole antibody", "assay_type": "physicochemical"}, "[3]": {"experiment": "Differential Scanning calorimetry (DSC) thermostability", "assay_type": "physicochemical", "conditions": "DSC, full-length antibody, Table 11", "text": "Differential Scanning calorimetry (DSC) was used to compare the thermostability of parent and engineered antibodies. DSC is a thermodynamical tool for direct assessment of the heat energy uptake, which occurs in a sample within a regulated increase or decrease in temperature. DSC is commonly employed to assess the thermal and conformational stability of a protein. The melting temperature of a protein, or of individual domains, can be obtained from the DSC profile, and if the reaction is reversible the thermodynamic parameters of the unfolding can be determined. A protein is considered more thermostable when the Tm (transition temperature) is higher. When thermostability data are compared to other bioanalytical methods, like size exclusion chromatography (SEC), it has been observed that a correlation between greater thermostability (higher Tm) and decreased aggregation. Antibodies with a higher Tm and decreased aggregation formation have the potential for improved long-term stability thus potentially making better biotherapeutics.\nDSC was carried out using a MicroCal™ VP-Capillary DSC system (GE Healthcare, Piscataway, N.J.) equipped with an auto-sampler. The temperature differences between the reference and sample cells are continuously measured, and calibrated to power units. For example, the full-length antibodies shown in TABLE 10 were diluted to 0.5 mg/mL in a buffered solution. The solution reference and protein samples were measured in a 135 μL cell from 20 to 110° C. at a heating rate of 60° C./hour. The pre-scan was set at 15 minutes while the filtering period was 10 seconds. Signal from the blank buffer solution was used for baseline subtraction. The data analysis was performed using MicroCal™ Origin 7 software. Heat capacity during protein melting was calculated by normalizing over protein concentration."}, "H929 human myeloma cells": {"test_system": "H929 human myeloma cells", "experiment": "H929 subcutaneous tumor xenograft model", "assay_type": "in vivo, NSG mice", "conditions": "dosed intravenously once", "text": "The majority of multiple myeloma tumor cells reside in the bone marrow and tumor burden has been associated with osteolytic bone disease. In addition, bone marrow stromal cells and osteoclasts may protect multiple myeloma tumor cells from chemotherapy. See Dougall, W C, et al., RANKL is a therapeutic target in multiple myeloma, Roodman-G D ed. Myeloma Bone Disease. Humana Press. 2010: 169-182. A NSG/NOG mouse model has been reported to be an improved host for growth of multiple myeloma cells in bone (Miyakawa-Y, et al., BBRC 313 (2004) 258-262). The NSG mouse model has also been optimized for the use of luciferase labeling for bioluminescent imaging and ex vivo selection for increased tumor take and growth rate (see EXAMPLE 10). 5×10^6 H929 human myeloma cells were implanted subcutaneously into female NSG (NOD/SCID IL2Rg−/−) mice using growth-factor reduced Matrigel™ (BD Biosciences) to generate tumor xenografts for efficacy studies. H929 cells express an average of approximately 24,000 BCMA sites/cell. Treatment with 2A1-MCC-DM1 or control conjugate (anti-streptavidin-MCC-DM1) was initiated when the tumor size reached an average of approximately 150 mm^3. Tumor-bearing animals were randomized by tumor size into groups of ten animals each and dosed intravenously once. A blinded dose response study of 2A1-MCC-DM1 at doses ranging from 20-200 ug DM1/kg (1-10 mg Ab/kg) was performed. […]"}, "[4]": {"test_system": "H929 luciferase-labeled myeloma cells", "experiment": "H929-luc bone-tropic xenograft model (incl. serum human IgG FLC kappa ELISA)", "assay_type": "in vivo, NSG mice", "conditions": "single IV treatment day 14, 250 ug DM1/kg (10 mg Ab/kg)", "experimental": "In short, H929 luciferase-labeled myeloma cells that express an average of approximately 24,000 BCMA sites per cell were administered intravenously (1×10^6 cells) into NSG mice. Fourteen days after tumor inoculation, tumor-bearing animals were randomized based on hind limb bioluminescence (tumor burden) into groups of ten animals each and dosed intravenously once. A blinded dosing study of 2A1CV5-MCC-DM1, unconjugated 2A1CV5 and control conjugate employing a single dose of 250 ug DM1/kg (10 mg Ab/kg) was performed in this established bone-tropic tumor model. No nutritional supplementation was provided.\n• 1×10^6 cells H929-luc cells, IV • Mice distributed into equal groups determined by hind limb BLI, Day 14 • Single treatment of antibody at 10 mg/kg, I.V., Day 14 • BLI measured 2×/week (blinded) • Study endpoint day 35 • 80 NSG (NOD/SCID IL2Rg−/−) mice were injected intravenously on Jan. 13, 2011, 1×10^6 H929luc cells • BLI was measured twice per week • Day 14 mice were distributed into five equivalent groups (n=10) based on hind limb tumor burden, as measured by BLI • Treatment plan: one I.V. injection • Treatment groups blinded and include: • Vehicle (PBS) • Anti-huBCMA-huIgG1-2A1-CV5 (unconjugated) • Anti-huBCMA-huIgG1-2A1-CV5-MCC-DM1 • Anti-huBCMA-huIgG1-2A1-WT-MCC-DM1 • Anti Streptavadin-MCC-DM1 • Anti-huBCMA-2A1-CV5-MCC-DM1 used at 10 mpk • Anti-huBCMA-2A1-WT-MCC-DM1 and anti Streptavadin-MCC-DM1 were normalized based on maytansinoid drug equivalents of 2A1-CV5-MCC-DM1 at 10 mpk • Timing: injected H929luc cells, ADC treatment began on day 14, analysis on day 35\nHuman immunoglobulin molecules consist of two heavy chains which define class (IgG, IgA, IgM, IgD, IgE) and identical light chains (kappa or lambda). In healthy individuals the majority of light chains in serum exist bound to heavy chains. Free Light Chains (FLC) are a natural product of B lymphocytes and represent a unique biomarker of neoplastic and reactive B cell related disorders. Increased FLC are associated with various malignant plasma disorders. Detection of FLC is an important diagnostic aid for a variety of diseases including multiple myeloma, smoldering myeloma and monoclonal gammopathy of undetermined significance. Human IgG FLC kappa ELISA (Biovendor, RD 194088100R-K) was used to analyze presence of FLC in sera from H929 xenografts. Kappa light chain antibodies were not detected in sera of mice 18 days after being treated with 2A1CV5-MCC-DM1, but were detected in sera of mice receiving vehicle (PBS) or isotype control conjugate (anti-Streptavidin-MCC-DM1) (see FIGS. 38 and 39)."}},
  "note": "Numbering of substitutions follows the chain as printed.",
  "data": [
    {"molecule": "B1", "values": [
      {"measurement": "ka", "setting": "[1]", "value": 626000, "unit": "M⁻¹ s⁻¹"},
      {"measurement": "kd", "setting": "[1]", "value": 0.00129, "unit": "s⁻¹"},
      {"measurement": "pI (Whole)", "setting": "[2]", "value": 8.55},
      {"measurement": "Tm", "setting": "[3]", "value": 79, "unit": "°C"}
    ]},
    {"molecule": "B2", "values": [
      {"measurement": "ka", "setting": "[1]", "value": 597000, "unit": "M⁻¹ s⁻¹"},
      {"measurement": "kd", "setting": "[1]", "value": 0.0014, "unit": "s⁻¹"},
      {"measurement": "pI (Whole)", "setting": "[2]", "value": 8.55},
      {"measurement": "Tm", "setting": "[3]", "value": 82.5, "unit": "°C"}
    ]},
    {"molecule": "B3", "values": [
      {"measurement": "tumor growth inhibition", "setting": "H929 human myeloma cells; 67 ug DM1/kg (3 mg Ab/kg)", "value": "moderate tumor growth inhibition"},
      {"measurement": "tumor growth inhibition", "setting": "H929 human myeloma cells; 200 ug DM1/kg (10 mg Ab/kg)", "value": "robust tumor growth inhibition"},
      {"measurement": "antitumor effect (hind limb bioluminescence)", "setting": "[4]", "value": "complete tumor regression"}
    ]}
  ]
}
